Assay results from patent US20230027198A1 (The Rockefeller University, priority 2019, published 2023).

By UniProt entry, the sequences of proteins in these tests, tags left out. Residues count along the entry.
UniProt Q03111, 1-150 limits assumed: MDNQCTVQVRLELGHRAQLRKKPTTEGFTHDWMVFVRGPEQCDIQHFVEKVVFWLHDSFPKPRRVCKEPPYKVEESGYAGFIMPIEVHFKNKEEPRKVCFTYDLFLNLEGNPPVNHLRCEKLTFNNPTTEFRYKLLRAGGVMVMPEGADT

Molecular target: ENL YEATS domain (6×HIS ENL YEATS Domain) binding to H3K9cr peptide (Homo sapiens, UniProt Q03111)
Assay: TR-FRET ENL Screening Assay, FRET Assay Protocol 1
Settings: read-out: ENL FRET, H3K9cr peptide (aa1-20)

C[C@H]1CCCN1Cc1cc2cnc(NC(=O)c3ccc4[nH]c(=O)ccc4c3)cc2[nH]1
IC50: 193 nM
